These results are taken from BindingDB's records for doi:10.1021/jm048962u (The Burnham Institute, 2005).

The chains behind the UniProt entries cited, without tags or fusion partners. Where a name states a change or a piece, a line headed by the entry shows the natural chain unless it says otherwise.
UniProt P31749: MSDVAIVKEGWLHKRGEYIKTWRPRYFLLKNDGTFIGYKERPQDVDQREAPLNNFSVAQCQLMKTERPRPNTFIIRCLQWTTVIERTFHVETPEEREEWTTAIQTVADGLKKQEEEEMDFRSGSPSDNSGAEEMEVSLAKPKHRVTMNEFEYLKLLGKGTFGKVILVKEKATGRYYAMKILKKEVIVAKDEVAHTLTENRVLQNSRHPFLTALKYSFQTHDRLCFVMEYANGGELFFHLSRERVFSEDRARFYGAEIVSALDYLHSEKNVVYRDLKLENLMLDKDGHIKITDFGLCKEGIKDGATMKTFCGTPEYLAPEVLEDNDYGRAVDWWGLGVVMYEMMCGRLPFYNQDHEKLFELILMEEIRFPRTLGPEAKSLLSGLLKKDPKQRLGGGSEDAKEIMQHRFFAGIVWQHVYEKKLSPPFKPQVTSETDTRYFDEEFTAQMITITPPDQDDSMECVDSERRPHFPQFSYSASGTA

SMILES strings stand for the structures.

The experiment addresses RAC-alpha serine/threonine-protein kinase (Homo sapiens, UniProt P31749). As to the kind of experiment: Z-LYTE Kinase Assy. The note with it: pH 7.5; 25 °C. From the text:
The Z-LYTE assay (Invitrogen Corporation) employs a FRET-based, coupled-enzyme format and is based on the differential sensitivity of phosphorylated and non-phosphorylated peptides to proteolytic cleavage. A site-specific protease recognizes and cleaves nonphosphorylated peptides. […] Cleavage disrupts FRET between the donor (coumarin) and acceptor (fluorescein) fluorophores on the peptide, whereas uncleaved, phosphorylated peptides maintain FRET. The ratio of donor emission to acceptor emission after excitation of the donor fluorophore at 400 nm, quantitates reaction progress.

In turn, `C=c1c(C#N)c2[nH]c(N)c(C#N)c(C)c-2c1=Cc1ccc(-c2ccc(C(=O)O)cc2)o1` [4-(5-{[(5E)-2-amino-3,7-dicyano-4,6-dimethyl-5H-cyclopenta[b]pyridin-5-ylidene]methyl}furan-2-yl)benzoic acid] showed an IC50 of 126 µM.
